The values that follow come from patent publication US4866206A, “2-Halomethyl derivatives of 2-amino acids” (Merrell Dow France et Cie, priority 1988, dated 1989).

Amino acid sequences for entries named in this document (tags omitted). A change or cut given only in a name is not applied to a line headed by its entry.
UniProt P09057: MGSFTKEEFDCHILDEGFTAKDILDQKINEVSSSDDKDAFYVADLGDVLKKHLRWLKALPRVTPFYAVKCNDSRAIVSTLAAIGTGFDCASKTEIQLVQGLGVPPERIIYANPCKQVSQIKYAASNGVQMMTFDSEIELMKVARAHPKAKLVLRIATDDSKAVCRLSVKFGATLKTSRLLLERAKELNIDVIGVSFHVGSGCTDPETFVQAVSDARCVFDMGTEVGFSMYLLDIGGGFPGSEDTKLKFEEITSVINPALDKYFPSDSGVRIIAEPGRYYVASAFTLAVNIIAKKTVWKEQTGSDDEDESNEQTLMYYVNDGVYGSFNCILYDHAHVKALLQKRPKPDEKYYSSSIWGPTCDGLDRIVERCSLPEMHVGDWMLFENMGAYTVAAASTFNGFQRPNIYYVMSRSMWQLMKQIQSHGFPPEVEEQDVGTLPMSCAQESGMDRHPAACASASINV

The assay deals with rat liver ornithine decarboxylase (Rattus norvegicus, UniProt P09057). Kind of assay: time-dependent inhibition of rat liver ODC (in vitro). Format: biochemical. The settings on record: concentration of compound which gives half-maximal rate of inhibition.

Regarding `NCCCCC(N)(CCl)C(=O)O` (stereo not shown) [MCML, 2-chloromethyl-2,6-diaminohexanoic acid], the “K I” value is listed as “no apparent saturation”.
